# System: MDA‐MB‐468 cells
# Test: Coculture cell killing assay, HER2‐negative cells
# Assay type: cell-based, human
# Settings: coculture KPL‐4 + MDA‐MB‐468; 10 nM ADC, 5 days
substance,measurement,value
"T‐DM1: FDA‐approved HER2‐targeting ADC composed of trastuzumab, a non‐cleavable linker, and tubulin polymerization inhibitor DM1",Killing of MDA‐MB‐468 cells in coculture (bystander killing),did not show a bystander killing effect

# Source: paper PMC4946713 (Cancer Science, 2016)
